Values of other authors, collected in patent US20070208041A1, “Compositions for the treatment and prevention of heart disease and methods of using same” (priority 2005, published 2007).

Test system: phenylephrine-constricted rat aorta
Conditions: with benomyl

Structure (SMILES): O=[N+]([O-])OCC(CO)(CO)CO[N+](=O)[O-]
- effect of ALDH-2 inhibitor benomyl on vasodilator response: not affected
